PubChem BioAssay AID720506 (National Center for Advancing Translational Sciences (NCATS), 2013)
This is a selection; strong and weak results do not stand in their true shares. Records with an inconclusive call do not appear. Active and inactive are the calls of the source. The call rests on the fitted dose curve; in most records, active means well fitted activation curve with a large enough effect; inconclusive means small, poorly fitted or top-dose-only effect; inactive means flat fitted curve, though single readings scatter.
Further: nearly all actives have a fitted effect of over 70% in size.
Potency means the concentration at half of the fitted maximal effect.

Chains of the proteins cited; added tags and fusions are not shown.
UniProt P35462, whole entry, looked up: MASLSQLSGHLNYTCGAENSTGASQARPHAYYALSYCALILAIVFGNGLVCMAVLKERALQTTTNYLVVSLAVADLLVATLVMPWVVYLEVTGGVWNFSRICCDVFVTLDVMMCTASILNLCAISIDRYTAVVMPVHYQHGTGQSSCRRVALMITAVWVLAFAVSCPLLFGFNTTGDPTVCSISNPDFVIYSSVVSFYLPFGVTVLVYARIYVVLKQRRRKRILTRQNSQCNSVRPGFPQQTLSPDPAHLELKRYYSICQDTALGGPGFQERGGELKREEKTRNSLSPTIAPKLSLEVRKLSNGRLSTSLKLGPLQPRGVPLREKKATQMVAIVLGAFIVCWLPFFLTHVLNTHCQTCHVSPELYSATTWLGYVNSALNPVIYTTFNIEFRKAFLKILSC

What follows are compounds tested against D(3) dopamine receptor (Homo sapiens) (UniProt P35462) (assay: qHTS of D3 Dopamine Receptor Agonist: D3 Dopamine Receptor B-arrestin Agonist Confirmatory Assay). Settings: DiscoveRx D3 beta-arrestin cells, luminescence, 90 min.
Source text: D3 DARs represent a very important target for the treatment of several neuropsychiatric disorders. Indeed, one of the most promising therapeutic applications for the D3 DAR is in the area of addiction and related disorders. […] These findings have been observed with a number of addictive substances including cocaine, amphetamine, nicotine, and alcohol. […] Increased D3 DAR activity can thus lead to neuroprotective and neurorestorative actions in the CNS. […] This assay is used to confirm the activity of the identified D3 dopamine receptor agonist. Activation is the desired outcome for this assay. NIH Molecular Libraries Probe Production Centers Network [MLPCN] NIH Chemical Genomics Center [NCGC] MLPCN Grant: NS064831 Assay Submitter (PI): David Sibley
Freshly passaged DiscoveRx D3 cells are plated in 1536 well white, solid bottom plates at a density of 1500 cells/well in 3microl of complete media. After an overnight incubation at 37 degrees C in 5% CO2, cells are loaded with 23nl of test compound from the compound library (as well as dopamine controls) using a 1536 pintool and incubated at 37 degrees C for 90 minutes. Two microliters of DiscoveRx reagent is then added to all cells, and they are incubated for an additional 30 - 60 minutes at room temperature. Following incubation, luminescence is measured on a ViewLux CCD-based luminometer reader using a 20 sec exposure time.
`CCCN1CCC[C@@H](c2cccc(O)c2)C1` was tested, and the Potency was active: 112 nM. For `CCCN1CCC[C@H](c2cccc(O)c2)C1`, the Potency was active: 158 nM.
